Test results reported in PubChem BioAssay AID504454 (NMMLSC, 2011).
This is a selection; strong and weak results do not stand in their true shares. Active and inactive are the calls of the source.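 Rule for the calls: active = response above a set limit, near 3 SD of response in nonfluorescent compounds (cut at about 42% in these data); inactive = the rest.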

Chains of the proteins cited; added tags and fusions are not shown.
UniProt P07550, whole entry: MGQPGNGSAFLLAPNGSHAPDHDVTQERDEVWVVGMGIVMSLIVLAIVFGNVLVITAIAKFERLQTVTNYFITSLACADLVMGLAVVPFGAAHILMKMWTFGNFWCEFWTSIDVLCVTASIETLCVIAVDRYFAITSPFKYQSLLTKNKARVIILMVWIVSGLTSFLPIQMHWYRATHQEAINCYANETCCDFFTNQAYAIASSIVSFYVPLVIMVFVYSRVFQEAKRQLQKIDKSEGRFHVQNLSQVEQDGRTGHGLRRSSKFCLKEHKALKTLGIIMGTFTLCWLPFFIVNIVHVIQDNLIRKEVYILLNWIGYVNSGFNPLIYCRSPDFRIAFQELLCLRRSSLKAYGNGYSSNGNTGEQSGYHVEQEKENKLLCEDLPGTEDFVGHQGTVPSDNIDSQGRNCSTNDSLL

biological target: Beta-2 adrenergic receptor (Homo sapiens) (UniProt P07550); experiment: beta2AR agonists driving receptor internalization, primary screen, cell-based, FAP fluorogen, flow cytometry (AID 504454); conditions: Am2.2-beta2AR cells, hits give high values, concentration not given here

| SMILES | response |
| --- | --- |
| CCC(=O)N(c1ccccc1)C1(COC)CCN(CCc2cccs2)CC1 | inactive: 0.65% |
| CCC(=O)N(c1ccccc1)C1(COC)CCN(CCn2nnn(CC)c2=O)CC1 | inactive: 1.49% |
